Values of other authors, collected in patent US6492560B2, “Discrete-length polyethylene glycols” (The University of Washington, priority 1995, dated 2002).

Details: in vivo

PEG-recombinant human interleukin-2: polyethylene glycol-modified recombinant human interleukin-2
circulating half-life: markedly prolonged circulating half-life
